## Permeability data for macrocyclic peptides

Data: CycPeptMPDB; original report Kelly et al. 2021, doi:10.1021/jacs.0c06115.

PAMPA measures passive passage through an artificial lipid membrane. Permeability is given as log10 of P in cm/s; higher (less negative) is more permeable.

- CC(=O)N1CCC[C@H]1C(=O)N(C)[C@@H](CC(C)C)C(=O)N[C@@H]1C(=O)N[C@H](CC(C)C)C(=O)N[C@@H](CC(C)C)C(=O)N(C)[C@@H](CC(C)C)C(=O)N(C)[C@@H](C)C(=O)N[C@H](CC(C)C)C(=O)N2CCC[C@H]2C(=O)O[C@@H]1C: PAMPA -5.48 (log10 cm/s)
- CC(=O)N1CCC[C@@H]1C(=O)N(C)[C@H](CC(C)C)C(=O)N[C@@H]1C(=O)N[C@@H](CC(C)C)C(=O)N[C@@H](CC(C)C)C(=O)N(C)[C@@H](CC(C)C)C(=O)N(C)[C@@H](C)C(=O)N[C@H](CC(C)C)C(=O)N2CCC[C@H]2C(=O)O[C@@H]1C: PAMPA -6.87 (log10 cm/s)
- CC(=O)N1CCC[C@H]1C(=O)N(C)[C@@H](CC(C)C)C(=O)N[C@@H]1C(=O)N(C)[C@@H](CC(C)C)C(=O)N[C@@H](CC(C)C)C(=O)N(C)[C@@H](CC(C)C)C(=O)N(C)[C@@H](C)C(=O)N[C@H](CC(C)C)C(=O)N2CCC[C@H]2C(=O)O[C@@H]1C: PAMPA -7.08 (log10 cm/s)
- CC(=O)N1CCC[C@H]1C(=O)N(C)[C@@H](CC(C)C)C(=O)N[C@@H]1C(=O)N[C@H](CC(C)C)C(=O)N(C)[C@H](CC(C)C)C(=O)N(C)[C@H](CC(C)C)C(=O)N(C)[C@@H](C)C(=O)N[C@@H](CC(C)C)C(=O)N2CCC[C@H]2C(=O)O[C@@H]1C: PAMPA -5.60 (log10 cm/s)
- CC(=O)N1CCC[C@@H]1C(=O)N(C)[C@@H](CC(C)C)C(=O)N[C@@H]1C(=O)N[C@H](CC(C)C)C(=O)N[C@@H](CC(C)C)C(=O)N(C)[C@H](CC(C)C)C(=O)N(C)[C@@H](C)C(=O)N[C@@H](CC(C)C)C(=O)N2CCC[C@H]2C(=O)O[C@@H]1C: PAMPA -5.60 (log10 cm/s)
- CC(=O)N1CCC[C@@H]1C(=O)N(C)[C@H](CC(C)C)C(=O)N[C@@H]1C(=O)N[C@H](CC(C)C)C(=O)N[C@H](CC(C)C)C(=O)N[C@@H](CC(C)C)C(=O)N(C)[C@@H](C)C(=O)N[C@H](CC(C)C)C(=O)N2CCC[C@H]2C(=O)O[C@@H]1C: PAMPA -5.92 (log10 cm/s)
- CC(=O)N1CCC[C@@H]1C(=O)N(C)[C@H](CC(C)C)C(=O)N[C@@H]1C(=O)N(C)[C@H](CC(C)C)C(=O)N(C)[C@H](CC(C)C)C(=O)N[C@@H](CC(C)C)C(=O)N[C@@H](C)C(=O)N[C@H](CC(C)C)C(=O)N2CCC[C@@H]2C(=O)O[C@@H]1C: PAMPA -5.46 (log10 cm/s)
- CC(=O)N1CCC[C@H]1C(=O)N(C)[C@H](CC(C)C)C(=O)N[C@@H]1C(=O)N[C@H](CC(C)C)C(=O)N[C@@H](CC(C)C)C(=O)N(C)[C@@H](CC(C)C)C(=O)N[C@@H](C)C(=O)N[C@@H](CC(C)C)C(=O)N2CCC[C@H]2C(=O)O[C@@H]1C: PAMPA -5.19 (log10 cm/s)
- CC(=O)N1CCC[C@H]1C(=O)N[C@@H]1C(=O)N(C)[C@H](CC(C)C)C(=O)N(C)[C@@H](CC(C)C)C(=O)N(C)[C@@H](CC(C)C)C(=O)N[C@@H](CC(C)C)C(=O)N(C)[C@H](C)C(=O)N[C@@H](CC(C)C)C(=O)N2CCC[C@@H]2C(=O)O[C@@H]1C: PAMPA -5.32 (log10 cm/s)
- CC(=O)N1CCC[C@H]1C(=O)N(C)[C@H](CC(C)C)C(=O)N[C@@H]1C(=O)N(C)[C@@H](CC(C)C)C(=O)N(C)[C@@H](CC(C)C)C(=O)N[C@@H](CC(C)C)C(=O)N[C@@H](C)C(=O)N[C@H](CC(C)C)C(=O)N2CCC[C@@H]2C(=O)O[C@@H]1C: PAMPA -6.43 (log10 cm/s)
- CC(=O)N1CCC[C@H]1C(=O)N(C)[C@@H](CC(C)C)C(=O)N[C@@H]1C(=O)N(C)[C@@H](CC(C)C)C(=O)N(C)[C@H](CC(C)C)C(=O)N[C@H](CC(C)C)C(=O)N(C)[C@H](C)C(=O)N[C@H](CC(C)C)C(=O)N2CCC[C@@H]2C(=O)O[C@@H]1C: PAMPA -6.54 (log10 cm/s)
- CC(=O)N1CCC[C@@H]1C(=O)N(C)[C@@H](CC(C)C)C(=O)N[C@@H]1C(=O)N[C@@H](CC(C)C)C(=O)N[C@@H](CC(C)C)C(=O)N(C)[C@@H](CC(C)C)C(=O)N[C@@H](C)C(=O)N[C@H](CC(C)C)C(=O)N2CCC[C@H]2C(=O)O[C@@H]1C: PAMPA -6.29 (log10 cm/s)
- CC(=O)N1CCC[C@H]1C(=O)N(C)[C@H](CC(C)C)C(=O)N[C@@H]1C(=O)N(C)[C@H](CC(C)C)C(=O)N[C@H](CC(C)C)C(=O)N(C)[C@@H](CC(C)C)C(=O)N(C)[C@@H](C)C(=O)N[C@H](CC(C)C)C(=O)N2CCC[C@H]2C(=O)O[C@@H]1C: PAMPA -5.60 (log10 cm/s)
- CC(=O)N1CCC[C@H]1C(=O)N(C)[C@H](CC(C)C)C(=O)N[C@@H]1C(=O)N(C)[C@@H](CC(C)C)C(=O)N(C)[C@H](CC(C)C)C(=O)N(C)[C@H](CC(C)C)C(=O)N(C)[C@@H](C)C(=O)N[C@@H](CC(C)C)C(=O)N2CCC[C@@H]2C(=O)O[C@@H]1C: PAMPA -5.43 (log10 cm/s)
- CC(=O)N1CCC[C@H]1C(=O)N(C)[C@H](CC(C)C)C(=O)N[C@@H]1C(=O)N[C@H](CC(C)C)C(=O)N[C@H](CC(C)C)C(=O)N(C)[C@@H](CC(C)C)C(=O)N(C)[C@@H](C)C(=O)N[C@H](CC(C)C)C(=O)N2CCC[C@@H]2C(=O)O[C@@H]1C: PAMPA -5.38 (log10 cm/s)
- CC(=O)N1CCC[C@H]1C(=O)N(C)[C@H](CC(C)C)C(=O)N[C@@H]1C(=O)N[C@@H](CC(C)C)C(=O)N[C@H](CC(C)C)C(=O)N[C@H](CC(C)C)C(=O)N[C@H](C)C(=O)N[C@@H](CC(C)C)C(=O)N2CCC[C@H]2C(=O)O[C@@H]1C: PAMPA -6.68 (log10 cm/s)
- CC(=O)N1CCC[C@@H]1C(=O)N(C)[C@H](CC(C)C)C(=O)N[C@@H]1C(=O)N[C@@H](CC(C)C)C(=O)N(C)[C@@H](CC(C)C)C(=O)N(C)[C@H](CC(C)C)C(=O)N[C@@H](C)C(=O)N[C@H](CC(C)C)C(=O)N2CCC[C@H]2C(=O)O[C@@H]1C: PAMPA -6.68 (log10 cm/s)
- CC(=O)N1CCC[C@@H]1C(=O)N(C)[C@@H](CC(C)C)C(=O)N[C@@H]1C(=O)N[C@H](CC(C)C)C(=O)N(C)[C@@H](CC(C)C)C(=O)N(C)[C@@H](CC(C)C)C(=O)N(C)[C@@H](C)C(=O)N[C@@H](CC(C)C)C(=O)N2CCC[C@@H]2C(=O)O[C@@H]1C: PAMPA -5.85 (log10 cm/s)
- CC(=O)N1CCC[C@H]1C(=O)N(C)[C@H](CC(C)C)C(=O)N[C@@H]1C(=O)N(C)[C@@H](CC(C)C)C(=O)N[C@H](CC(C)C)C(=O)N[C@H](CC(C)C)C(=O)N[C@@H](C)C(=O)N[C@H](CC(C)C)C(=O)N2CCC[C@H]2C(=O)O[C@@H]1C: PAMPA -6.53 (log10 cm/s)
- CC(=O)N1CCC[C@@H]1C(=O)N(C)[C@@H](CC(C)C)C(=O)N[C@@H]1C(=O)N(C)[C@H](CC(C)C)C(=O)N(C)[C@@H](CC(C)C)C(=O)N(C)[C@@H](CC(C)C)C(=O)N[C@@H](C)C(=O)N[C@@H](CC(C)C)C(=O)N2CCC[C@H]2C(=O)O[C@@H]1C: PAMPA -5.41 (log10 cm/s)
- CC(=O)N1CCC[C@H]1C(=O)N(C)[C@@H](CC(C)C)C(=O)N[C@@H]1C(=O)N(C)[C@H](CC(C)C)C(=O)N[C@H](CC(C)C)C(=O)N(C)[C@H](CC(C)C)C(=O)N[C@@H](C)C(=O)N[C@H](CC(C)C)C(=O)N2CCC[C@@H]2C(=O)O[C@@H]1C: PAMPA -6.75 (log10 cm/s)
- CC(=O)N1CCC[C@@H]1C(=O)N(C)[C@H](CC(C)C)C(=O)N[C@@H]1C(=O)N[C@H](CC(C)C)C(=O)N[C@H](CC(C)C)C(=O)N[C@H](CC(C)C)C(=O)N[C@H](C)C(=O)N[C@H](CC(C)C)C(=O)N2CCC[C@@H]2C(=O)O[C@@H]1C: PAMPA -8.52 (log10 cm/s)

Excerpt, the opening 2 entries:

{"smiles": "CC(=O)N1CCC[C@H]1C(=O)N(C)[C@@H](CC(C)C)C(=O)N[C@@H]1C(=O)N[C@H](CC(C)C)C(=O)N[C@@H](CC(C)C)C(=O)N(C)[C@@H](CC(C)C)C(=O)N(C)[C@@H](C)C(=O)N[C@H](CC(C)C)C(=O)N2CCC[C@H]2C(=O)O[C@@H]1C", "PAMPA (log10 cm/s)": "-5.48"}
{"smiles": "CC(=O)N1CCC[C@@H]1C(=O)N(C)[C@H](CC(C)C)C(=O)N[C@@H]1C(=O)N[C@@H](CC(C)C)C(=O)N[C@@H](CC(C)C)C(=O)N(C)[C@@H](CC(C)C)C(=O)N(C)[C@@H](C)C(=O)N[C@H](CC(C)C)C(=O)N2CCC[C@H]2C(=O)O[C@@H]1C", "PAMPA (log10 cm/s)": "-6.87"}

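The data file gives no further conditions (lipid, pH, time, direction or concentration), and values from different papers need not be comparable. The list need not hold all peptides of the study. Entries at the database's floor value (log10 P of -10) are not listed.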